Measured values as given in EP3331859B1, “BROAD SPECTRUM REACTIVATORS OF OPNA-INHIBITION OF HUMAN CHOLINESTERASES” (dated 2017).

The chains behind the UniProt entries cited, without tags or fusion partners. Where a name states a change or a piece, a line headed by the entry shows the natural chain unless it says otherwise.
UniProt P22303: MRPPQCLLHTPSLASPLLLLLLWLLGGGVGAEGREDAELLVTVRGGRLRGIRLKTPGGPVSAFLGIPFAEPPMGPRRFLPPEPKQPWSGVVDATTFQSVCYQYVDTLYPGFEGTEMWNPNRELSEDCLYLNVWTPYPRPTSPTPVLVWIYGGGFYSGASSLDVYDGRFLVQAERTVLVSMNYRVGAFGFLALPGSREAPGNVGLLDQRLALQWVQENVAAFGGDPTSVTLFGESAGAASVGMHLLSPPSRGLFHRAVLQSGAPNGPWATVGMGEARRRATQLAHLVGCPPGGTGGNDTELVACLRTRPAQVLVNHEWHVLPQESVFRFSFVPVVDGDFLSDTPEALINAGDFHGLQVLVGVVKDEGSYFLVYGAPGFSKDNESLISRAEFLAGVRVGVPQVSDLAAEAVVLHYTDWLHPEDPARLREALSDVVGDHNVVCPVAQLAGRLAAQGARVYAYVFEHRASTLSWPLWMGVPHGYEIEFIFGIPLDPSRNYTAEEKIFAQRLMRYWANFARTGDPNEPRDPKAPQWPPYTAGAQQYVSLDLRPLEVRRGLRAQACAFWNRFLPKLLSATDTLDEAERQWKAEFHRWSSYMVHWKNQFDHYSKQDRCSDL

Legend:
[1] = target: paraoxon-inhibited AChE (Homo sapiens, UniProt P22303); assay: In vitro reactivation of hAChE inhibited by paraoxon (Ellman)
[2] = target: sarin-inhibited AChE (Homo sapiens, UniProt P22303); assay: In vitro reactivation of hAChE inhibited by sarin (Ellman)
[3] = target: tabun-inhibited hAChE (Homo sapiens, UniProt P22303); assay: In vitro reactivation of hAChE inhibited by tabun (Ellman)
[4] = dissociation constant of inhibited enzyme-oxime complex, 37 °C, pH 7.4
[5] = maximal reactivation rate constant, 37 °C, phosphate buffer 0.1 M pH 7.4

In the case of HLö-7, the Kd [1, 4] is reported as 210 µM, the kr2 ([1]; kr2 = kr/KD) is reported as 50 M⁻¹ s⁻¹ and the kr [1, 5] is reported as 0.63 ± 0.04 min⁻¹. It also gave a Kd [2, 4] of 24.2 µM, a kr2 ([2]; kr2 = kr/KD) of 583 M⁻¹ s⁻¹ and a kr [2, 5] of 0.849 min⁻¹. It also gave a Kd [3, 4] of 106 µM, a kr2 ([3]; kr2 = kr/KD) of 3.3 M⁻¹ s⁻¹ and a kr [3, 5] of 0.020 ± 0.0007 min⁻¹.
